pIC50: −log10 of the molar value.
Target: Brm ATPase-SnAC (636-1331) (Homo sapiens, UniProt P51531)
Experiment: BRM ATPase Inhibition Assay (ADP-Glo)
Type: biochemical
Conditions: 5 nM BRM ATPase-SnAC, 85 μM ATP, 2 nM pCMV-dR8.91 plasmid, 60 min RT
Method: BRM ATPase Inhibition Assay
Compound inhibition of ATPase activity of Brm ATPase-SnAC (636-1331) was measured by using the ADP-Glo assay kit from Promega (V6930). 120 nL of compound in 100% DMSO were transferred to a white 384 well microtiter assay plate using an ATS Acoustic Transfer System from EDC Biosystems. All subsequent reagent additions were performed using a MultiFlo FX Multi-Mode Dispenser. Assay buffer was 20 mM HEPES pH 7.5, 1 mM MgCl2, 20 mM KCl, 1 mM DTT, 0.01% BSA, 0.005% Tween 20. 4 μL of 7.5 nM Brm ATPase-SnAC in assay buffer was added to the assay plate and incubated at RT for 5 min with compound. 2 μL of 255 μM ATP and 6 nM pCMV-dR8.91 plasmid in assay buffer was added to assay plate to initiate the reaction. The final concentrations of reagents were 5 nM BRM ATPase-SnAC, 85 μM ATP, and 2 nM pCMV-dR8.91 plasmid. The ATPase reaction was incubated at RT for 60 min. 3 μL of ADP-Glo reagent was added to stop the reaction and was incubated for 30 min at RT. 3 μL of Kinase detection reagent was added to the assay plate which was incubated for 90 min at RT. Plates were read with a 2103 Multilabel Envision reader using ultrasensitive luminescence detection. IC50 values were determined from the average of duplicate data points by non-linear regression analysis of percent inhibition values plotted versus compound concentration. […]

By UniProt entry, the sequences of proteins in these tests, tags left out.
UniProt P51531, whole entry, looked up: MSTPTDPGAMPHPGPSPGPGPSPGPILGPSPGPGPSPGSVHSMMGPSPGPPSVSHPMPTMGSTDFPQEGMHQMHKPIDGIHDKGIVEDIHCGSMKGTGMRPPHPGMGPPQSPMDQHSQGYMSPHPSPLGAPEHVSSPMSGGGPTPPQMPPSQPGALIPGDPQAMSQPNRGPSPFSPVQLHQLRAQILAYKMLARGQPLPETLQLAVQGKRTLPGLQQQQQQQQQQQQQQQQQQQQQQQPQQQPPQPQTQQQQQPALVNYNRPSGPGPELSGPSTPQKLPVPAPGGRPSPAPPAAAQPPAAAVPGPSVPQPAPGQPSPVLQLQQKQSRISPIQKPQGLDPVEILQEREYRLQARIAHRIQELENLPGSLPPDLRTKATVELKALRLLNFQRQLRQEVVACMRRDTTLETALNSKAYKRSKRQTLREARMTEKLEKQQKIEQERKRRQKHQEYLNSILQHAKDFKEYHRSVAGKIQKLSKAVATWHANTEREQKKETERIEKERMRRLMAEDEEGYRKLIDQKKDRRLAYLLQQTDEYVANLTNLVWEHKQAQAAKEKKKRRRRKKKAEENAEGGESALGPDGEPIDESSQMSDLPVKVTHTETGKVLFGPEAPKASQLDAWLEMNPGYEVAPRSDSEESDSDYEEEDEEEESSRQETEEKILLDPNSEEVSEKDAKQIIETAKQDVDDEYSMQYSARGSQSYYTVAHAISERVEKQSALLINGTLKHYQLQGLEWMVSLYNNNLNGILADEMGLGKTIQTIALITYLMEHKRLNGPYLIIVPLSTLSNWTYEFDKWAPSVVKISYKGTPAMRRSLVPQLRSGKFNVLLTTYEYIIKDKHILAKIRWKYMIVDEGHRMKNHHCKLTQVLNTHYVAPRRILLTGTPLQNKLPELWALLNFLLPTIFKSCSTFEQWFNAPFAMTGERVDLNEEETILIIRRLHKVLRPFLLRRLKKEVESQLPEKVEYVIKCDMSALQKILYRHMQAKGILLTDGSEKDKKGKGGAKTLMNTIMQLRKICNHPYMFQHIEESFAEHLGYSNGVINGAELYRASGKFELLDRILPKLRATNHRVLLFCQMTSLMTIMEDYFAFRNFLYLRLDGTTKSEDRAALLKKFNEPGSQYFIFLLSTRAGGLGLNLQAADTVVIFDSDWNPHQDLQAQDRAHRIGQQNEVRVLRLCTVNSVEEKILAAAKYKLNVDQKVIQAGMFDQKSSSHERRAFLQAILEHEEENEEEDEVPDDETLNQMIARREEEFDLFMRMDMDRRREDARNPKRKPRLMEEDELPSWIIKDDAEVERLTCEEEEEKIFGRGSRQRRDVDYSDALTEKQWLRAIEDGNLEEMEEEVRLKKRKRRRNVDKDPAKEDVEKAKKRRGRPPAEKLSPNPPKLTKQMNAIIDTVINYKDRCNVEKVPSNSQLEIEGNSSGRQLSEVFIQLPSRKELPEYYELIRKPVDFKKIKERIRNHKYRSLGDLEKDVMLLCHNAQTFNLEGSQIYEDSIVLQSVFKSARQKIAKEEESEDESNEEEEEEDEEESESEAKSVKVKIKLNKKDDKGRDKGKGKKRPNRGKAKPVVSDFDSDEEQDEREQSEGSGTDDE

With `O=C(Nc1ccnc(Cl)c1)Nc1cc(C(F)(F)F)ns1` [Example 3, 1-(2-chloropyridin-4-yl)-3-(3-(trifluoromethyl)isothiazol-5-yl)urea] as the molecule, how does the pIC50 read?
The pIC50 was 8.00.
